Yeast mating assay B: variants of the scFv Ab-14

Antigen: PDVDLGDISGINAS, a 14-residue peptide of the SARS-CoV-2 spike HR2 region.

Ab-14 is the parent antibody, in scFv form: VH, then a 15-residue (Gly4Ser)3 linker, then VL. The heavy chain is unchanged in all variants.
VH: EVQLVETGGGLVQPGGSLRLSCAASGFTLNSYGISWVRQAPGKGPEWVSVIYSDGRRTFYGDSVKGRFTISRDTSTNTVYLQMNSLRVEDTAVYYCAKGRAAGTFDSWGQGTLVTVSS
VL: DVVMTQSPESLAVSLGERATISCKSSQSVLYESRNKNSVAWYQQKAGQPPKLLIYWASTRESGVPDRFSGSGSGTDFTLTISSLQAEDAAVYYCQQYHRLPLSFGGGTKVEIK

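The parent was found by panning a naive human phage display library on the peptide. This is the validation round: designs drawn from the data on random variants, tested in the same kind of assay. Several design methods are mixed in this list. The scFvs were displayed on barcoded MATa yeast, the peptide on MATalpha yeast. Pairs that bind mate more often; barcode pairs of the diploids are counted by sequencing. Scores were corrected for input abundance and mapped to Kd with protein pairs of known affinity run in the same pool. Mating was done six times.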

The whole VL of each variant is written out. This list holds designs with at most six substitutions. Affinities are written as log10 Kd with Kd in nM; a lower number is a better binder. Averages over replicates are reported, and they cover detected replicates only. Nonspecific signal, from three strains lacking the peptide, appeared in 4% of pairings of all light chain designs, centred on 2.64 (5% of these signals below 1.59); values are not corrected for it. Values of this round are not directly comparable with the first-round values of the same sequences. The authors averaged sequences with at least three values out of six and counted those with two or fewer as poor binders.

* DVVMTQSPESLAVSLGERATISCKLSQSMLYESRQKNSVAWYQQKAGQPPKLLIYNASTRESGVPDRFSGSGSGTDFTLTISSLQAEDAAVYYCQQYHRLPLSFGGGTKVEIK = 1.17 (6 of 6 replicates)
* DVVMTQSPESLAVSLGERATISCKMSQSVLMEARNKNSVAWYQQKAGQPPKLLIYDASLRESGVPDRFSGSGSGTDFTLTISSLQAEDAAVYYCQQYHRLPLSFGGGTKVEIK = -0.20 (6 of 6 replicates)
* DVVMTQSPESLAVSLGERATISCKLSPSYLYESRNKNSVAWYQQKAGQPPKLLIYNASTRESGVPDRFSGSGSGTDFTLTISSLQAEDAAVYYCQQYHRLPLSFGGGTKVEIK = -0.01 (6 of 6 replicates)
* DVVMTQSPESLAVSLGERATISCKSSISYLTESRNKNSVAWYQQKAGQPPKLLIYEASTRESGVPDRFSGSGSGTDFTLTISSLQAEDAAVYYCQQYHRLPLSFGGGTKVEIK = -0.19 (6 of 6 replicates)
* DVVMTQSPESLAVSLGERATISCKISQSVLYESMNVNSVAWYQQKAGQPPKLLIYWASTRESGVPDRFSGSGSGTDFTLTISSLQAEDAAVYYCQQYHRLPLSFGGGTKVEIK = 0.64 (6 of 6 replicates)
* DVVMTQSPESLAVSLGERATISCKLEQSVLYESRNKNSVAWYQQKAGQPPKLLIYHASTRESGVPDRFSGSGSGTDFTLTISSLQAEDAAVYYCQQYHRLPLSFGGGTKVEIK = -0.17 (6 of 6 replicates)
* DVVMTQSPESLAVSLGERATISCKLSWSVLLMSRAKNSVAWYQQKAGQPPKLLIYNASTRESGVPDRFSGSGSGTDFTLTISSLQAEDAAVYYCQQYHRLPLSFGGGTKVEIK = -0.30 (6 of 6 replicates)
* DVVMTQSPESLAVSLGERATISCKQSQSVLYESRNRNSVAWYQQKAGQPPKLLIYWASTRTSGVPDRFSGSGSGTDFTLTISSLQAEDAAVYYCQQYHRLPLSFGGGTKVEIK = 1.91 (2 of 6 replicates)
* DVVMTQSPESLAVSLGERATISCKFSQSVLYESRNKNSVAWYQQKAGQPPKLLIYNASTRIAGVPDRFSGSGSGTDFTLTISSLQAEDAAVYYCQQYHRLPLSFGGGTKVEIK = 0.22 (6 of 6 replicates)
* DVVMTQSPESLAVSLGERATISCKLSQSHLYESRNKNSVAWYQQKAGQPPKLLIYEASTRESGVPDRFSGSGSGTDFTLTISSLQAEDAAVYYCQAYHRLPLSFGGGTKVEIK = 0.34 (6 of 6 replicates)
* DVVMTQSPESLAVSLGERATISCKSSQSVLYESRNKNSVAWYQQKAGQPPKLLIYWASVREDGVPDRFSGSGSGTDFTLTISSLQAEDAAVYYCQQYHRLPLSFGGGTKVEIK = 1.96 (4 of 6 replicates)
* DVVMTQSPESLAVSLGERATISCKLSQSPLYESRNKNSVAWYQQKAGQPPKLLIYDASTRESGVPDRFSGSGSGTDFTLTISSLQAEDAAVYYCQQYHRLPLSFGGGTKVEIK = -0.26 (6 of 6 replicates)
* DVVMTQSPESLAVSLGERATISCKVSQSELYESRNKNSVAWYQQKAGQPPKLLIYNASTRESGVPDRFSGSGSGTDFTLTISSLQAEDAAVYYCQQYHRLPLIFGGGTKVEIK = 0.21 (6 of 6 replicates)
* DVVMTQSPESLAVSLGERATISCKSSQSHLSESRNKNSVAWYQQKAGQPPKLLIYAASTRESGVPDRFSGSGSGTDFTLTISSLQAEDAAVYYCQQYHRLPLSFGGGTKVEIK = 0.11 (6 of 6 replicates)
* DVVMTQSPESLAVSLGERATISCKESQSVLYLSRNKNSVAWYQQKAGQPPKLLIYAASCRESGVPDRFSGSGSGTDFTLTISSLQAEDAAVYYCQAYHRLPLSFGGGTKVEIK = 2.57 (2 of 6 replicates)
* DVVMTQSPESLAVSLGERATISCKSSQSVLYESRNKNSVAWYQQKAGQPPKLLIYWASTRESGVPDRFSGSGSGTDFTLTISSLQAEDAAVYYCQQYHRLPLDFGGGTKVEIK = 2.24 (1 of 6 replicates)
* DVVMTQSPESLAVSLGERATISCKSLQSVLYESRNQNSVAWYQQKAGQPPKLLIYHASTREDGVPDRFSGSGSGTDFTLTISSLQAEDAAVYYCQQYHRLPLSFGGGTKVEIK = 0.64 (6 of 6 replicates)
* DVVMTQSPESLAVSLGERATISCKLEFLHLYESRNKNSVAWYQQKAGQPPKLLIYEASTRESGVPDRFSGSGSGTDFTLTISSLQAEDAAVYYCQQYHRLPLSFGGGTKVEIK = -0.13 (6 of 6 replicates)
* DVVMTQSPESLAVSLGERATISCKISQSVDFESRNKNSVAWYQQKAGQPPKLLIYDASTRESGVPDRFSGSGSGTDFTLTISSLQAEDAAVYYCQQYHRLPLSFGGGTKVEIK = -0.29 (6 of 6 replicates)
* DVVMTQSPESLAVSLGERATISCKSSQSVDNESRNKNSVAWYQQKAGQPPKLLIYDASTRESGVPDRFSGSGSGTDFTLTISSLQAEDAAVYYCQQYHRLPLSFGGGTKVEIK = 0.21 (6 of 6 replicates)
* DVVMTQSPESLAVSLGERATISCKSSQWYLYESRNKNSVAWYQQKAGQPPKLLIYGASTRESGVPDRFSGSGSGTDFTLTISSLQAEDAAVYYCQQYHRLPLSFGGGTKVEIK = 0.48 (6 of 6 replicates)

For reference, 2 entries of the list once more:

- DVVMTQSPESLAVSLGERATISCKSSQSHLSESRNKNSVAWYQQKAGQPPKLLIYAASTRESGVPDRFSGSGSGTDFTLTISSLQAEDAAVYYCQQYHRLPLSFGGGTKVEIK -> 0.11 (6 of 6 replicates)
- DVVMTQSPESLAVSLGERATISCKMSQSVLMEARNKNSVAWYQQKAGQPPKLLIYDASLRESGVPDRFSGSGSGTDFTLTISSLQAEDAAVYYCQQYHRLPLSFGGGTKVEIK -> -0.20 (6 of 6 replicates)

The measurements come from Li et al. 2023 (doi:10.1038/s41467-023-39022-2) through the FLAb antibody collection.